The list shows a part of the results, in another mix than the full data. Inconclusive results are not listed. Active and inactive are the calls of the source. No stated cut-off is given here; in the data, active means activity change below about -50%; inconclusive means mostly about -30% to -49%; inactive means weaker than that.
Assay: qHTS for Inhibitors of Inflammasome Signaling: IL-1-beta AlphaLISA Primary Screen
Details: THP-1 LPS/ATP IL-1B secretion, 16 h, at 57.5 µM, active compounds read low
Description: Inflammasomes are a set of intracellular multi-protein complexes that enable autocatalytic activation of inflammatory caspases and drive the innate immune response to counter harmful agents. […] A qHTS assay, based on AlphaLISA technology, was developed to screen the Molecular Libraries Small Molecule Repository (MLSMR) to look for novel inflammasome inhibitors. The assay detects IL-1B using AlphaLISA anti-IL-1B acceptor and donor beads. A decreased emission signal, indicating reduced IL-1B secretion, is the desired outcome for this assay. NIH Chemical Genomics Center [NCGC] NIH Molecular Libraries Probe Centers Network [MLPCN] MLPCN Grant: MH095513 Assay Provider: Shyam Biswal Ph.D., Johns Hopkins University Immunity. 2012 Jul 27;37(1):85-95. PMID: 22819042 [2] Curr Pharm Des. 2012;18(16):2320-8. PMID: 22390695
Three microliters containing 3000 THP-1 cells were dispensed into the wells of solid, white, tissue culture treated Greiner 1,536-well plates. Library compounds and positive control, Glyburide, were pin-transferred (23 nL) by a Kalypsys pin-tool equipped with a 1,536-pin array, resulting in final compound concentration ranges of 2.5 nM to 57.5 uM. […] The AlphaLISA signal was read by a PerkinElmer EnVision plate reader with an ultrasensitive luminescence detector and 1536 Plate HTS AlphaScreen aperture (excitation of 680nm and emission of 615nm).
On the % scale 0 is the no-effect control and ±100 the full control effect.

SMILES	activity change
O=P1(Nc2ccc(Br)cn2)COc2ccccc2OC1	inactive: 10.1%
COc1ccccc1OP(C)(=O)Nc1ccccc1Br (configuration not stated)	inactive: 16.1%
